Only a part is listed here, and it is no random draw. Calls of active or inactive are those of the source. Calls follow the shape of the dose curve; as a rule, active = well fitted activation curve with a large enough effect; inconclusive = small, poorly fitted or top-dose-only effect; inactive = no such curve, though single readings can be large or run the other way.

This assay is described as follows: qHTS of alpha-syn Inhibitors. Also: % of control where 0% means no effect; nearly all actives have a fitted effect of over 65% in size. The settings on record: Yeast expressing alpha-synuclein, BacTiter-Glo, 24 h; at 46.1 µM (top of the series). The text has this:
The goal of this project is to identify new chemical probes capable of reversing the toxicity associated with the Parkinson disease-related protein, alpha-synuclein. Compounds will be selected on their ability to restore growth in yeast cells expressing toxic levels of alpha-synuclein. These compounds will provide a complementary approach to deciphering the tangled mechanisms of toxicity and protection that we have uncovered through genome-wide genetic screens and are beginning to uncover in a large-scale proteomics analysis with mass spectroscopy. To this end, a miniaturized assay was developed to be screened against the Molecular Libraries Small Molecule Repository (MLSMR) to discover alpha-synuclein inhibitors. Please note that in the set-up this yeast-based assay compounds that inhibit as alpha-syn, have a read-out as activators. NIH Chemical Genomics Center [NCGC] NIH Molecular Libraries Probe Centers Network [MLPCN] MLPCN Grant: NS060957 Assay Submitter (PI): Susan Lindquist, Whitehead Institute/MIT
Dispense 2.5 microL yeast galactose medium per 1536-well plate, pin compound, dispense 2.5 microL alpha-synuclein expressing yeast in galactose medium at OD600=0.02 (pregrown in raffinose medium to mid-log phase) per well, incubate for 24 hr at 30 deg C, and cell growth will be measured using 5 microL of Bactiter/Glo reagent to entire plate and read using Luminescence Protocol in ViewLux.
In general terms: qHTS replaces the single test concentration by a dilution series.
In the case of `CCc1nc2c(n1)c1c(non1O)c1c2no[n+]1[O-]`, the growth rescue (activation) is inactive: -14.4%.

In the case of `Cc1ccc(NP(=O)(Oc2ccccc2)Oc2ccccc2)nc1`, the growth rescue (activation) is inactive: -10.4%.

In the case of `Nc1ccc([As](=O)(O)c2ccc(N)cc2)cc1`, the growth rescue (activation) is inactive: -6.45%.

Turning to `CCN(/C(=N/P(=O)(N1CCOCC1)N1CCOCC1)N1CCOCC1)c1ccc(OC)cc1`, the growth rescue (activation) is inactive: -1.73%.

For the molecule `CN(C)C(=O)OCCc1n(C)cc[n+]1C`, the growth rescue (activation) is inactive: 3.62%.

Regarding `CC(C)=N/N=C(\N)N[N+](=O)[O-]`, the growth rescue (activation) was inactive: -0.0528%.

`CC(C)c1nc(Nc2ccccc2)n(P(=O)(N(C)C)N(C)C)n1`: the growth rescue (activation) was inactive: -0.437%.

Consider `c1cc(-c2nn[nH]n2)ccc1-c1nn[nH]n1`, for which the growth rescue (activation) is inactive: -0.809%.

For `CC1CCN(C(=O)Oc2c(Cl)cc(Cl)c3cccnc23)CC1`, the growth rescue (activation) is inactive: 7.42%.

On to `O=P1(N(CCCl)CCCl)OCCCS1` (stereo not drawn), for which the growth rescue (activation) was inactive: 1.56%.

As for `O=C(Nc1cc([As](=O)(O)O)ccc1O)c1ccccc1`, the growth rescue (activation) was inactive: -9.54%.

Regarding `O=P(/N=c1/nc(-c2ccccc2)n(-c2ccccc2)s1)(Nc1ccccc1)Nc1ccccc1`, the growth rescue (activation) is inactive: 10.6%.

Take `CC(C)(C)C(=O)NC(Sc1ccncn1)C(Cl)(Cl)Cl` (stereo not drawn): the growth rescue (activation) was inactive: -0.124%.

For the molecule `O=[N+]([O-])c1ncn(CCn2ncnc2[N+](=O)[O-])n1`, the growth rescue (activation) is inactive: 3.32%.

`O=[N+]([O-])c1cccc(NC2=NCC(CBr)S2)c1` (stereo not drawn): the growth rescue (activation) was inactive: 1.44%.

Take `COC(=O)C1(C)COP(=O)(Nc2ccccc2)OC1` (stereo not drawn): the growth rescue (activation) was inactive: 1.45%.

Take `O=C(O)CNc1ccc([As](=O)(O)O)cc1`: the growth rescue (activation) is inactive: 1.34%.

With `COc1ccc(N)c([N+](=O)[O-])c1[N+](=O)[O-]`, the growth rescue (activation) is inactive: 3.13%.

As to `CN(C)C1(CNC(=O)c2ccc(Cl)c(S(N)(=O)=O)c2)CCCCC1`, the growth rescue (activation) is inactive: 3.21%.

`O=P(Nc1ccccn1)(c1ccc(Br)cc1)c1ccc(Br)cc1`: the growth rescue (activation) was inactive: 7.16%.

For `C[C@H]1OP(=O)(Oc2ccccc2)[C@H](O)[C@H](O)[C@H]1N=[N+]=[N-]` (stereo partly drawn), the growth rescue (activation) was inactive: -4.84%.

In the case of `O=P(Nc1nc2ccccc2s1)(c1ccccc1)c1ccccc1`, the growth rescue (activation) was inactive: 1.76%.

`O=[N+]([O-])c1ncn(CCn2cnc([N+](=O)[O-])n2)n1`: the growth rescue (activation) was inactive: -9.54%.

Regarding `CC(=O)NC(SC(=S)N(C)C)C(Cl)(Cl)Cl` (stereo not drawn), the growth rescue (activation) was inactive: -7.17%.

For the molecule `O=[N+]([O-])c1ccc(O)c(/C=N/Nc2ccc([N+](=O)[O-])cc2[N+](=O)[O-])c1`, the growth rescue (activation) is inactive: -16.4%.

On to `O=[As](O)(c1ccccc1)c1ccc(O)cc1`, for which the growth rescue (activation) is inactive: 0.769%.

`Nc1ccc([As](=O)(O)c2ccc([N+](=O)[O-])cc2)cc1`: the growth rescue (activation) was inactive: -3.45%.

`C(Cc1nn[nH]n1)Cc1nn[nH]n1`: the growth rescue (activation) is inactive: -6.62%.

As to `O=C(OC1CN2CCC1CC2)c1cccc(Cl)c1` (stereo not drawn), the growth rescue (activation) was inactive: 1.37%.

For the molecule `O=P(Nc1nccs1)(c1ccccc1)c1ccccc1`, the growth rescue (activation) was inactive: 2.27%.

As for `CC(C)C(=O)NC(Sc1ccccc1)C(Cl)(Cl)Cl` (stereo not drawn), the growth rescue (activation) is inactive: 5.37%.

Turning to `c1nnnn1CCn1cnnn1`, the growth rescue (activation) is inactive: 0.511%.

Take `CCOc1ccc(C2=NCC(CBr)S2)cc1` (stereo not drawn): the growth rescue (activation) was inactive: 5.09%.

In the case of `O=P1(Nc2nc3ccc(Cl)cc3s2)COc2ccccc2O1` (stereo not drawn), the growth rescue (activation) was inactive: -14.7%.

Consider `CCc1cc(O)c([N+](=O)[O-])c(C)c1[N+](=O)[O-]`, for which the growth rescue (activation) is inactive: -72.9%.

`CC(C)(C)C(=O)NC(Sc1ccccc1)C(Cl)(Cl)Cl` (stereo not drawn): the growth rescue (activation) is inactive: 4.38%.

For the molecule `COC(=O)C1(C)COP(=O)(NCc2ccccc2)OC1` (stereo not drawn), the growth rescue (activation) was inactive: -2.5%.

On to `N#C/C(=C\c1ccc(N(CCBr)CCBr)cc1)C(N)=O`, for which the growth rescue (activation) is inactive: 7.5%.

Regarding `CC(=O)c1ccc(N2CC2c2ccncc2)cc1` (stereo not drawn), the growth rescue (activation) is inactive: -0.872%.

With `C[C@@H]1C=CCP(=O)(Oc2ccccc2)O1` (stereo partly drawn), the growth rescue (activation) is inactive: -0.29%.

As for `C[C@H]1OP(=O)(Oc2ccccc2)C[C@@H]2O[C@@H]21` (stereo partly drawn), the growth rescue (activation) is inactive: 3.59%.

With `Cc1ccccc1CN(C)C(=O)COC(=O)C(O)(c1ccccc1)c1ccccc1`, the growth rescue (activation) is inactive: 12.5%.

Regarding `CC(=O)Nc1ccc(Oc2c([N+](=O)[O-])cc([N+](=O)[O-])cc2[N+](=O)[O-])cc1`, the growth rescue (activation) is inactive: 5.68%.

On to `CC(=O)Nc1ccc([As](=O)(O)O)c(O)c1`, for which the growth rescue (activation) is inactive: -1.24%.

`O=C(NC1CCS(=O)(=O)C1)NP(=S)(Oc1ccccc1)Oc1ccccc1` (stereo not drawn): the growth rescue (activation) is inactive: -4.31%.

For the molecule `CCNC(=S)/N=C(\N)N[N+](=O)[O-]`, the growth rescue (activation) is inactive: 0.663%.

With `Cc1ccc(NP(=O)(Oc2cccc(C)c2)Oc2cccc(C)c2)nc1`, the growth rescue (activation) is inactive: -0.881%.

Turning to `c1ccc(-c2nn[nH]n2)c(-c2nn[nH]n2)c1`, the growth rescue (activation) is inactive: 1.61%.

As for `O=P1(N(CCCl)CCCl)OCCC2CCCCN21` (stereo not drawn), the growth rescue (activation) is inactive: -3.81%.

For `CC(=O)NC(SC(=S)N(CC(C)C)CC(C)C)C(Cl)(Cl)Cl` (stereo not drawn), the growth rescue (activation) was inactive: 4.89%.

Consider `COC(=O)c1cc2c(s1)N=C(c1ccccc1)N(C)P2(=O)N1CCOCC1` (stereo not drawn), for which the growth rescue (activation) is inactive: -9.21%.

As for `CCC(=O)N1C2C3N(C(=O)CC)C1C1N(C(=O)CC)C(C(N1C(=O)CC)N3C(=O)CC)N2C(=O)CC`, the growth rescue (activation) is inactive: -6.2%.

Take `O=C(OC1CN2CCC1CC2)c1ccccc1` (stereo not drawn): the growth rescue (activation) was inactive: -2.18%.

Take `CN(C(=O)Cc1ccc(Cl)c(Cl)c1)[C@@H]1CCCC[C@@H]1N1CCCC1`: the growth rescue (activation) is inactive: 1.57%.

On to `CN(C)C(=O)Oc1noc2ccccc12`, for which the growth rescue (activation) is inactive: 5.63%.

Turning to `O=c1c2cc([N+](=O)[O-])ccc2[nH]c2c([N+](=O)[O-])cc([N+](=O)[O-])cc12`, the growth rescue (activation) was inactive: -69.1%.

Regarding `Cc1ccccc1OP(=O)(Nc1ccccn1)Oc1ccccc1C`, the growth rescue (activation) was inactive: 19.4%.

Take `CC(NC(=O)COC(=O)C(O)(c1ccccc1)c1ccccc1)c1ccccc1` (stereo not drawn): the growth rescue (activation) was inactive: 11.1%.

(Values after PubChem BioAssay AID652106 (National Center for Advancing Translational Sciences (NCATS), 2013).)
